# Tested on: Staphylococcus intermedius #2357(clinical isolate from the Copenhagen area)
# Experiment: MIC determination in broth microdilution assay
# Details: C: Staphylococcus intermedius #2357
row,Structure (SMILES),MIC
1,"COc1ccc(C(=O)/C=C/c2cc(C(C)(C)C)ccc2OCCN(C)C)c(F)c1 [Compound C004, (E)-3-[5-tert-Butyl-2-(2-dimethylamino-ethoxy)-phenyl]-1-(2-fluoro-4-methoxy-phenyl)-propenone]",18.8 µM
2,"COc1ccc(C(=O)/C=C/c2cc(-c3cc(C)cc(C)c3)ccc2OCCN(C)C)cc1 [Compound C023, (E)-3-[4-(2′-Dimethylamino-ethoxy)-3′,5′-dimethyl-biphenyl-3-yl]-1-(4-methoxy-phenyl)-propenone]",4.7 µM
3,"CCCc1cc(/C=C/C(=O)c2ccc(OC)cc2F)c(OCCN(C)C)cc1O [Compound C039, (E)-3-[2-(2-Dimethylamino-ethoxy)-4-hydroxy-5-propyl-phenyl]-1-(2-fluoro-4-methoxy-phenyl)-propenone]",18.8 µM
4,"Cc1cc(C)cc(-c2ccc(OCCN(C)C)c(/C=C/C(=O)c3ccccc3OC(C)C)c2)c1 [Compound C067, (E)-3-[4-(2-Dimethylamino-ethoxy)-3′,5′-dimethyl-biphenyl-3-yl]-1(2-isopropoxy-phenyl)-propenone]",4.7 µM
5,"Cc1cc(C)cc(-c2ccc(OCCN(C)C)c(/C=C/C(=O)c3ccccc3NCCN(C)C)c2)c1 [Compound C074, (E)-3-[4-(2-Dimethylamino-ethoxy)-3′,5′-dimethyl-biphenyl-3-yl]-1-[2-(2-dimethylamino-ethylamino)-phenyl]-propenone]",9.4 µM
6,"Cc1cc(C)cc(-c2ccc(OCCN(C)C)c(/C=C/C(=O)c3cccc(NCCN(C)C)c3)c2)c1 [Compound C075, (E)-3-[4-(2-Dimethylamino-ethoxy)-3′,5′-dimethyl-biphenyl-3-yl]-1-[3-(2-dimethylamino-ethylamino)-phenyl]-propenone]",9.4 µM
7,"Cc1cc(C)cc(-c2ccc(OCCN(C)C)c(/C=C/C(=O)c3cccc(O)c3)c2)c1 [Compound C085, (E)-3-[4-(2-Dimethylamino-ethoxy)-3′,5′-dimethyl-biphenyl-3-yl]-1-(3-hydroxy-phenyl)-propenone]",4.7 µM
8,"COc1ccc(C(=O)/C=C/c2cc(-c3cc(C)cc(C)c3)ccc2OCCN(C)C)c(CN(C)C)c1 [Compound C092, (E)-3-[4-(2-Dimethylamino-ethoxy)-3′,5′-dimethyl-biphenyl-3-yl]-1-(2-dimethylaminomethyl-4-methoxy-phenyl)-propenone]",18.8 µM
9,"Cc1cc(C)cc(-c2ccc(OCCN(C)C)c(/C=C/C(=O)c3ccccc3N)c2)c1 [Compound C093, (E)-1-(2-Amino-phenyl)-3-[4-(2-dimethylamino-ethoxy)-3′,5′-dimethyl-biphenyl-3-yl]-propenone]",4.7 µM
10,"Cc1cc(C)cc(-c2ccc(OCCN(C)C)c(/C=C/C(=O)c3cccc(N4CCN(C)CC4)c3)c2)c1 [Compound C103, (E)-3-[4-(2-Dimethylamino-ethoxy)-3′,5′-dimethyl-biphenyl-3-yl]-1-[3-(4-methyl-piperazin-1-yl)-phenyl]-propenone]",9.4 µM
11,"Cc1cc(C)cc(-c2ccc(OCCN(C)C)c(/C=C/C(=O)c3ccccc3OCCCN(C)C)c2)c1 [Compound C104, (E)-3-[4-(2-Dimethylamino-ethoxy)-3′,5′-dimethyl-biphenyl-3-yl]-1-[2-(3-dimethylamino-propoxy)-phenyl]-propenone]",18.8 µM
12,"Cc1cc(C)cc(-c2ccc(OCCN(C)C)c(/C=C/C(=O)c3ccc(OCCN(C)C)cc3F)c2)c1 [Compound C157, (E)-3-[4-(2-Dimethylamino-ethoxy)-3′,5′-dimethyl-biphenyl-3-yl]-1-[4-(2-dimethylamino-ethoxy)-2-fluoro-phenyl]-propenone]",9.4 µM

# Same assay, conditions: Staphylococcus intermedius
row,Structure (SMILES),MIC
1,"Cc1cc(C)cc(-c2ccc(OCCN(C)C)c(CCC(=O)c3ccc(F)cc3)c2)c1 [Compound C072, 3-[4-(2-Dimethylamino-ethoxy)-3′,5′-dimethyl-biphenyl-3-yl]-1-(4-fluoro-phenyl)-propan-1-one]",9.4 µM
